According to PubChem BioAssay AID588856 (National Center for Advancing Translational Sciences (NCATS), 2011):
Only a part is listed here, and it is no random draw. Some structures show a salt or complex split into parts, the way the source records it. The source made the active and inactive calls. Calls come from the whole dose curve; as a rule, active = well fitted cell-killing curve with a large enough effect; inactive = no such curve, though single readings can be large or run the other way.

Assay: qHTS for Inhibitors of TGF-b: Cytotox Counterscreen
Conditions: HepG2 CAGA-GFP viability, ATP luminescence, 18 h; at 46.1 µM (top of the series)
Excerpt: TGF-b is a main component in the TGF-b signaling pathway which plays diverse roles in cellular and development pathways. TGF-b is mediated by transcription factors called "Smads". Although the Smad-dependent pathway is the primary canonical TGF-b signaling mode, TGF-b1 can also activate alternative signaling pathways, including those involving MAPK (ERK, JNK and p38). This interaction may mediate or enhance Smad-dependent responses, or can exert Smad-independent effects. The complexity of this signaling cascade allows the TGF-b superfamily to perform unique, overlapping or redundant functions. We believe that targeting the TGF-beta pathway at the Smad-transcription factor level may eliminate the consequences of disrupting the entire pathway and offer specificity without affecting other signaling pathways. Smad3 is the primary transducer of TGF-b's signals and Smad3 regulates many functions attributed to TGF-b signaling. We hypothesize that Smad3 inhibitors will selectively eliminate Smad3-specific TGF-beta signals without undesired off-target effects. We aim to identify Smad3-small molecule antagonists using a quantitative high throughput screening (qHTS) approach.
A high-throughput assay was developed to screen the NIH Molecular Libraries Small Molecule Repository (MLSMR). This is a cell based assay, where TGF-b is tagged with GFP. This is a counterscreen that evaluates the cytotoxicity of the compounds that were screened in the primary cell-based screen (AID 588855).
MH087449NIH Chemical Genomics Center [NCGC]
NIH Molecular Libraries Probe Centers Network [MLPCN]
Assay Submitter (PI): Sushil Rane, National Institute of […]
Suspensions of trypsinized HEPG2 CAGA-GFP cells were dispensed into white, tissue culture-treated, solid 1536-well plates at 5uL/well (1000 cells/well final concentration) in DMEM medium supplemented with 1% FBS. Plates were incubated at 37 degrees C for 2 hours, after which 23 nL of compounds or DMSO were delivered to each well using a pin tool. One uL of recombinant TGF-beta in DMEM (1% FBS) was then dispensed (500 pg/mL final concentration), and plates were incubated at 37 degrees C for 18 hours. Two uL of CellTiter Glo (Promega), a luminescence-based viability reagent, was dispensed, followed by a 10 minute room temperature incubation. The plates were then measured on a PerkinElmer ViewLux plate reader for luminescence (clear filter) using a 5 second exposure. The %Activity was determined from the corrected luminescence values. Wells containing media only (no cells) were used to normalize %Activity of identified toxic compounds; media-only wells corresponded to 100%Activity (complete cell-killing), while DMSO-dosed cell controls were used to normalize 0%Activity (no toxicity).
Concentration-response curves were fitted to the signals arising from the resulting luminescence. The concentration-effect curves were then classified based on curve quality (r2), response magnitude and degree of measured activity, and compounds were subsequently categorized based on their curve class.

SMILES | activity change, negative = cytotoxicity
CC(C)(C)n1nnnc1C(c1ccccc1)N1CCC(n2c(=O)[nH]c3ccccc32)CC1 (centres undefined) | inactive: 3.36%
O=C(NCC1(N2CCOCC2)CCCCC1)c1ccc(Cl)cc1 | inactive: -9.88%
O=C1CCN(Cc2ccccc2)CC1 | inactive: -3.84%
CCOc1ccc(C)cc1CN(CCCl)CCCl | inactive: -12.5%
COc1ccccc1C(=O)NCC1(N2CCOCC2)CCCCC1 | inactive: -13.2%
O=C(NCC1(N2CCCCC2)CCCCC1)c1ccc(F)cc1 | inactive: -76.3%
CCCCOc1ccc(C(=O)NCC2(N3CCOCC3)CCCCC2)cc1 | inactive: -19.2%
O=P1(N(CCCl)CCCl)SCCCS1 | inactive: 5.95%
CCCCn1nnnc1C(c1cc2ccccc2o1)N1CCC(n2c(=O)[nH]c3ccccc32)CC1 (centres undefined) | inactive: -2.72%
CCOC(=O)N1CCC(Nc2ccc(F)cc2)CC1 | inactive: 6.65%
COc1ccc(NC2CCN(CCc3ccccc3)CC2)c(OC)c1 | inactive: -18.3%
O=c1[nH]c2ccccc2n1C1CCN(C(c2ccccc2)c2nnnn2C2CCCCC2)CC1 (centres undefined) | inactive: 0.764%
COc1cc(C(=O)NCC2(N(C)C)CCCCC2)ccc1OC(F)F | inactive: -17.1%
CCOC(=O)N1CCC(Nc2cccc(C)c2)CC1 | inactive: -19.7%
O=c1[nH]c2ccccc2n1C1CCN(C(c2cccc3ccccc23)c2nnnn2C2CCCC2)CC1 (centres undefined) | inactive: -0.587%
COc1ccc(C(=O)NCC2(N3CCCCC3)CCCCC2)cc1 | inactive: -4.89%
CCC(c1nnnn1C1CCCC1)N1CCC(n2c(=O)[nH]c3ccccc32)CC1 (centres undefined) | inactive: -0.879%
CC(C)(C)OC(=O)N1CCC(N(C(=O)c2ccccc2)c2ccc(F)cc2)CC1 | inactive: 7.93%
COc1ccc(C(=O)NCC2(N3CCCCC3)CCCCC2)c(OC)c1OC | inactive: 0.481%
O=C(NCC1(N2CCCCC2)CCCCC1)c1ccc(=O)[nH]c1 | inactive: 6.49%
CCCCn1nnnc1C(c1cccs1)N1CCC(n2c(=O)[nH]c3ccccc32)CC1 (centres undefined) | inactive: -12.2%
O=C(NCC1(N2CCCCC2)CCCCC1)c1cccs1 | inactive: 28.4%
CCCCn1nnnc1C(CC)N1CCC(n2c(=O)[nH]c3ccccc32)CC1 (centres undefined) | inactive: 5.96%

SMILES | activity change, negative = cytotoxicity
CSc1ccccc1C(=O)NCC1(N2CCCCC2)CCCCC1 | inactive: -25.4%
Cc1cccc(NC2(C#N)CCN(Cc3ccccc3)CC2)c1 | inactive: -2.22%
O=c1[nH]c2ccccc2n1C1CCN(C(c2ccccc2OC(F)(F)F)c2nnnn2C2CCCCC2)CC1 (centres undefined) | inactive: -14.5%
O=C(NCC1(N2CCCCC2)CCCCC1)c1ccc(Cl)nc1 | inactive: 9.57%
Cc1cc(C)cc(N(C(=O)c2ccccc2)C2CCN(C(=O)OC(C)(C)C)CC2)c1 | inactive: -21.2%
O=C(NCC1(N2CCOCC2)CCCCC1)c1cc2ccccc2o1 | inactive: -30.5%
O=c1[nH]c2ccccc2n1C1CCN(C(c2cc3ccccc3o2)c2nnnn2C2CCCCC2)CC1 (centres undefined) | inactive: -1.17%
O=C(OC1CN2CCC1CC2)C1c2ccccc2Oc2ccccc21 (centres undefined) | inactive: -7.94%
N#CC1(Nc2ccccc2)CCN(Cc2ccccc2)CC1 | inactive: -28.6%
O=C(NCC1(N2CCCCC2)CCCCC1)c1ccc(Cl)s1 | inactive: -13.8%
O=C1C(O)=C([N+](=O)[O-])C(=O)C(O)=C1[N+](=O)[O-] | inactive: 23.5%
COc1ccc(Cl)cc1C(=O)NCC1(N2CCOCC2)CCCCC1 | inactive: -2.1%
CCOC(=O)N1CCC(Nc2ccc(OC)cc2)CC1 | inactive: -3.28%
CC(C)c1ccc(NC2CCN(C(=O)OC(C)(C)C)CC2)cc1 | inactive: 0.814%
CCCCn1nnnc1C(c1ccccc1OC(F)(F)F)N1CCC(n2c(=O)[nH]c3ccccc32)CC1 (centres undefined) | inactive: -1.84%
COc1ccc(CN(CCCl)CCCl)cc1Cl | inactive: 7.69%
CN(C)c1cccc(C(=O)NCC2(N3CCCCC3)CCCCC2)c1 | inactive: -11.5%
O=[N+]([O-])c1cc([N+](=O)[O-])c(OC2CCCCC2O)c([N+](=O)[O-])c1 (centres undefined) | inactive: 28.2%
COc1cc(OC)c(C(=O)NCC2(N(C)C)CCCCC2)cc1OC | inactive: 0.86%
CCC(c1nnnn1C(C)(C)C)N1CCC(n2c(=O)[nH]c3ccccc32)CC1 (centres undefined) | inactive: -2.93%
O=C(NCC1(N2CCOCC2)CCCCC1)c1cc(F)c(F)cc1Cl | inactive: -9.34%
CCCCn1nnnc1C(c1ccnc2ccccc12)N1CCC(n2c(=O)[nH]c3ccccc32)CC1 (centres undefined) | inactive: -10.1%
O=C(OC1CN2CCC1CC2)c1ccc([N+](=O)[O-])cc1 (centres undefined) | inactive: -12.8%

SMILES | activity change, negative = cytotoxicity
COc1ccc2c(c1O)-c1c(O)c(OC)cc3c1[C@H](C2)[N+](C)(C)CC3.O=[N+]([O-])c1cc([N+](=O)[O-])c([O-])c([N+](=O)[O-])c1[O-] | inactive: 18.1%
O=C(NCC1(N2CCCCC2)CCCCC1)c1cncc(Br)c1 | inactive: -21.7%
CN1CCC(Nc2cccc(F)c2)CC1 | inactive: -2.75%
COc1ccc(C(c2nnnn2C2CCCC2)N2CCC(n3c(=O)[nH]c4ccccc43)CC2)cc1 (centres undefined) | inactive: 4.85%
Cc1ccc(C(=O)NCC2(N(C)C)CCCCC2)o1 | inactive: 1.96%
CCCCOc1ccccc1C(=O)NCC1(N2CCOCC2)CCCCC1 | inactive: -17.4%
CCCOc1ccc(C(=O)NCC2(N(C)C)CCCCC2)cc1OC | inactive: -4.46%
O=C(NCC1(N2CCOCC2)CCCCC1)c1ccccc1Br | inactive: -18.2%
O=C(NCC1(N2CCCCC2)CCCCC1)c1ccc(OC(F)F)cc1 | inactive: -2.11%
CCN1CCC(Nc2ccc(Cl)cc2)CC1 | inactive: 5.12%
N#CC1(Nc2ccccc2)CCN(CCc2ccccc2)CC1 | inactive: -2.18%
O=c1[nH]c2ccccc2n1C1CCN(C(c2ccccc2OC(F)(F)F)c2nnnn2C2CCCC2)CC1 (centres undefined) | inactive: 13.3%
CSc1ccc(C(=O)NCC2(N3CCOCC3)CCCCC2)cc1 | inactive: -15%
CCOc1ccc(C(=O)NCC2(N3CCOCC3)CCCCC2)cc1 | inactive: -10.2%
O=C(NCC1(N2CCCCC2)CCCCC1)c1cccc([N+](=O)[O-])c1 | inactive: -6.5%
O=C(NCC1(N2CCCCC2)CCCCC1)c1cccc(C(F)(F)F)c1 | inactive: -3.02%
CCCOc1cccc(C(=O)NCC2(N3CCOCC3)CCCCC2)c1 | inactive: 6.58%
O=C(NCC1(N2CCOCC2)CCCCC1)c1cc(=O)[nH]c2ccccc12 | inactive: 2.46%
COc1cc(C(=O)NCC2(N3CCCCC3)CCCCC2)ccc1OC(F)F | inactive: -4.53%
CCCCn1nnnc1C(c1cccc2ccccc12)N1CCC(n2c(=O)[nH]c3ccccc32)CC1 (centres undefined) | inactive: 1.4%
CC(C)c1ccc(C(=O)NCC2(N3CCOCC3)CCCCC2)cc1 | inactive: -25.8%
COc1ccc(NC2CCN(C(=O)OC(C)(C)C)CC2)cc1 | inactive: -27.9%
CN1CCN(CCOC(=O)C(O)(c2ccccc2)c2ccccc2)CC1 | inactive: 37.5%
